Values quoted from earlier work, collected in US10954258B2, “STAT3 dimerization inhibitors” (H. LEE MOFFITT CANCER CENTER AND RESEARCH INSTITUTE, INC., priority 2012, dated 2021).

Amino acid sequences for entries named in this document (tags omitted).
UniProt P40763, whole entry, species assumed: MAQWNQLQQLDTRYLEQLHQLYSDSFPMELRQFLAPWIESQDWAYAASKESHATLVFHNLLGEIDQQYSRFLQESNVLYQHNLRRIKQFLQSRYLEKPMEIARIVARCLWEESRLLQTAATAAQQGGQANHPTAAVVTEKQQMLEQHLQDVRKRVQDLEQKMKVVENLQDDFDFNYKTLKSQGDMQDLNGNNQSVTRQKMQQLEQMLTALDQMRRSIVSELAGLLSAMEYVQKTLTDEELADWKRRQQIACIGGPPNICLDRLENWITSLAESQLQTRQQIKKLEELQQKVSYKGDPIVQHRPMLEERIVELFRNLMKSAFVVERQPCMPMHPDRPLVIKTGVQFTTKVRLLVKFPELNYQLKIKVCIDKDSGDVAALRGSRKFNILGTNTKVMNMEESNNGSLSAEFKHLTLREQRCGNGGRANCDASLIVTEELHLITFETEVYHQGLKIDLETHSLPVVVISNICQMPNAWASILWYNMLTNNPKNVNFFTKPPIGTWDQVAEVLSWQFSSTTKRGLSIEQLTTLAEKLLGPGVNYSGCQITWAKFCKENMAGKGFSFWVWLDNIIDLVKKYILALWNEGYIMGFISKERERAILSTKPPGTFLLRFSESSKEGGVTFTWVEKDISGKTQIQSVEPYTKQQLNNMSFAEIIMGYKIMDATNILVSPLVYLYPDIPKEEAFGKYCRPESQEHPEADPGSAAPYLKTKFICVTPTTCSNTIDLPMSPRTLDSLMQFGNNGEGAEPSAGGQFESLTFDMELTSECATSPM

Target: STAT3 (Homo sapiens, UniProt P40763)
Settings: cited from earlier work

In the case of `Cc1ccc(S(=O)(=O)OCC(=O)Nc2ccc(C(=O)O)c(O)c2)cc1` [Compound S3I-201], the “STAT3:STAT3 complex formation, STAT3 DNA-binding and transcriptional activities” value is given as “inhibited STAT3:STAT3 complex formation and STAT3 DNA-binding and transcriptional activities”.
